≈ marks a conversion by molar mass, not a printed value.
What was measured:
[1] = test system: Erwinia amylovora PMV 6076; assay: ≥ marks a high value that may be exact or a test limit, other limits are often not marked, values filed in µg/mL are converted to µM
[2] = test system: Pseudomonas syringae pv. syringae EPS 94; assay: as above

CC[C@H](C)[C@H](NC(=O)[C@H](CC(C)C)NC(=O)[C@H](C)NC(=O)[C@@H]1CCCN1C(=O)[C@H](CC(C)C)NC(=O)CNC(=O)[C@@H](NC(=O)[C@@H](NC(=O)[C@H](C)NC(=O)[C@@H]1CCCN1C(=O)CNC(=O)[C@H](C)NC(=O)[C@H](CC(C)C)NC(=O)[C@H](Cc1ccc(O)cc1)NC(=O)[C@H](CCCCN)NC(=O)[C@H](CC(C)C)NC(=O)[C@@H](NC(=O)[C@H](CCCCN)NC(=O)[C@H](CCCCN)NC(=O)[C@H](Cc1ccccc1)NC(=O)[C@H](CC(C)C)NC(=O)[C@H](CCCCN)NC(=O)[C@H](CCCCN)NC(=O)[C@@H](N)CO)[C@@H](C)CC)[C@@H](C)O)[C@@H](C)O)C(=O)N[C@@H](CO)C(=O)N[C@@H](Cc1c[nH]c2ccccc12)C(=O)O [SKKLFKKILKYLAGPATTGLPALISW]
MIC [1]: 1.77 µM (≈ 5.03 µg/mL)
MIC [2]: 1.77 µM (≈ 5.03 µg/mL)

Source: DBAASP
